Values joined by “and” are separate entries in the source; they are usually repeats but may differ in a detail not shown here. Equal values may be shown once. Read-outs that look alike come from different tables or passages of the source.
Molecular target: T1, 5-HT2AR (Homo sapiens, UniProt P28223)
T1 construct: expressed in transfected cells; host or cells: HEK 293T
Format: cell-based
Settings: 5-HT2AR wt, Log [Drug]

Chains of the proteins cited; added tags and fusions are not shown.
UniProt P28223, whole entry: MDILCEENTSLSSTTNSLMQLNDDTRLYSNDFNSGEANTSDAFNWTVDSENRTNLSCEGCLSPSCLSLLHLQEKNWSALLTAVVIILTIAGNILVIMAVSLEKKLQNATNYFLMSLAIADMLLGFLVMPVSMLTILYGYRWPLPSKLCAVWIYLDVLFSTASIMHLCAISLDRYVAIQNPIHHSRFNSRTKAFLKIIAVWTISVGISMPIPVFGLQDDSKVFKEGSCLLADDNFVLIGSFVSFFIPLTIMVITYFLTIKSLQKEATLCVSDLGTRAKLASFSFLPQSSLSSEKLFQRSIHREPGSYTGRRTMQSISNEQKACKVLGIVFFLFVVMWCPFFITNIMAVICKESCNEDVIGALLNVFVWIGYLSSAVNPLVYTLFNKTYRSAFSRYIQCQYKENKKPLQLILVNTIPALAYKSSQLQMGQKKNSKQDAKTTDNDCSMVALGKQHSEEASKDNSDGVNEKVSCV

Question: How did the “Net BRET G protein activation, source data Figure 5c” value (“Net BRET G protein activation” below) (M = -8) turn out when NCCc1c[nH]c2ccc(O)cc12 [5-HT] was run?
Answer: Its value is 32.7164 and 47.4294 and 40.3989.

Question: And the “Net BRET G protein activation” value (M = -9)?
Answer: Its value is 66.9967 and 80.0215 and 73.6581.

Question: What about the “Net BRET G protein activation” value (M = -10) of the same compound?
Answer: The value was 93.6917 and 90.4905 and 92.6591.

Question: And the “Net BRET G protein activation” value (M = -11)?
Answer: The value was 73.653 and 95.9238 and 85.7404.

Question: And the “Net BRET G protein activation” value (M = -12)?
Answer: The value was 94.9129 and 91.3429 and 93.6659.

From article PMC7052193, “Nanobody-enabled monitoring of kappa opioid receptor states” (Nature Communications, 2020)
